For test [1], the target named is AF647-Osh6 (S. cerevisiae) (UniProt Q02201). Nature of the test: MST.
In the next test the target is T1, Osh6 (S. cerevisiae, UniProt Q02201 1-448).
T1 construct: also called Osh6 WT
T1 sequence (looked up): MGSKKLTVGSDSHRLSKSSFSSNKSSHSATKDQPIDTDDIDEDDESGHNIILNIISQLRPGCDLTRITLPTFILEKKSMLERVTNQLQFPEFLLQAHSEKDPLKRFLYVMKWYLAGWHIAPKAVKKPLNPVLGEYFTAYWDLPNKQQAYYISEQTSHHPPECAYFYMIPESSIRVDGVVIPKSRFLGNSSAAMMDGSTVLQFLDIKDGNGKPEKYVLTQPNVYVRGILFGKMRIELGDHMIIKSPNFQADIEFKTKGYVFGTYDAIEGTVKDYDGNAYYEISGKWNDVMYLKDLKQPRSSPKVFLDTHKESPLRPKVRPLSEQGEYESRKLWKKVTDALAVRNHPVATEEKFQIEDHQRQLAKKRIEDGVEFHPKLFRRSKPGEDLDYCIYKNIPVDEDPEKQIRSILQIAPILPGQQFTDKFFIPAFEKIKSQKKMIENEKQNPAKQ
Nature of the test: pull-down; GST constructs (2.5 μM) immobilised on Glutathione Sepharose 4B beads; Osh6, its mutants, Osh4, ORD^Osh3 or ORD^ORP8 added at 2.5 μM; 50 mM tris pH 7.4, 120 mM NaCl, 1 mM MgCl2, 1% TX-100, 1 mM DTT, 10% glycerol; 25°C, 1 hour; bound fraction by SDS-PAGE. To be noted: both partners purified.

The record followed here is publication PMC12617493 (Science Advances, 2025).

For the molecule Ist2[729–768] peptide, the equilibrium dissociation constant (Kd) (as a rule, the equilibrium constant for the complex coming apart) in test [1] is 4 µM.

B1: GST-Ist2[590–768] (domain or fragment, S. cerevisiae, UniProt P38250 590-768, looked up)
chain: SSHDDVANGIVPKHVVNVQNPPKQEVFEKIPSPEFNSNNEKELVQRKGSANEKLHQELGEKQPASSANGYEAHAATHANNDPSSLSSASSPSLSSSSSSSKTGVVKAVDNDTAGSAGKKPLATESTEKRNSLVKVPTVGSYGVAGATLPETIPTSKNYYLRFDEDGKSIRDAKSSAESS
As for B1, the binding result with Osh6 is on record as “binds”.
